# AlphaSeq binding of Ab-14 heavy chain variants to a spike HR2 peptide

Source: Engelhart et al. 2022 (doi:10.1038/s41597-022-01779-4), MIT Lincoln Laboratory and A-Alpha Bio; data file from the FLAb repository.

Binding partner: SARS-CoV-2 spike HR2 peptide, sequence PDVDLGDISGINAS.

Parent scFv Ab-14: VH joined to VL by a 15-residue (Gly4Ser)3 linker. Changes lie in the heavy chain CDRs alone.
VH: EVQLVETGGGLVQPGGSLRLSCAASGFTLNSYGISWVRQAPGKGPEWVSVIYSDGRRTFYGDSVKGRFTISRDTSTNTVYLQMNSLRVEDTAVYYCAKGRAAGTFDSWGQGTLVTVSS
VL: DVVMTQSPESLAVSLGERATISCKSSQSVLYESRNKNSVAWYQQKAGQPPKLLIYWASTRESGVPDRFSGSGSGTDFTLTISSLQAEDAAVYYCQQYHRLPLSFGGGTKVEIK

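The parent was found by panning a naive human phage display library on the peptide. In library AAYL49, one, two or three CDR residues were substituted; doubles and triples were drawn at random. The assay is AlphaSeq: two haploid yeast populations carry antibody and antigen on their surface. The frequency of each diploid, read from paired DNA barcodes, reflects how well the two displayed proteins bind. A regression on co-assayed BCL2-family reference pairs converts the normalised counts of each replicate to an apparent Kd. There are three technical replicates.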

Each variant is given by its three heavy chain CDRs, as the data file delimits them; those of the parent are GFTLNSYGIS, VIYSDGRRTFYGDSVK, GRAAGTFDS. The read-out is the apparent dissociation constant on a log10 scale (nM): the lower, the stronger. Replicates are averaged; those with no signal do not enter the mean. Where no diploid with the target was found in that replicate, the entry reads "nd": below detection, most likely a poor binder, though not proof of it. Empty control strains, which show no peptide, gave a signal in 15% of pairings with library AAYL49; the median was 4.06 and 95% of these signals were weaker than 2.83. No background was subtracted.

CDR-H1,CDR-H2,CDR-H3,"replicates, log10 nM","mean, log10 nM"
GFTLFSYGIS,VIYSDGRRTFHGDEVK,GRAAGTFDS,nd 3.98 nd,3.98
GFTLNQYGIF,VIYSDGRRTFYKDSVK,GRAAGTFDS,nd nd nd,nd
GMTLNSNGIS,VIYSDGRRTFYGDSVK,GRAAGKFDS,4.26 4.47 4.25,4.32
GFTLNSYGHS,VIYSDGRRTFYGDSVK,GRAAGTFHQ,nd nd nd,nd
GNTLNSYGIS,VIVSDGRRTFYGDSVK,GRAAFTFDS,nd nd 3.57,3.57
GFTLNSYGIS,VIYSDGRRTFYGDSVK,WRAAGPFDS,2.63 1.86 1.69,2.06
GFTLNSYGIS,VIYSDGRRTFYGDDVK,GRAACTFDS,0.66 1.14 0.94,0.91
GFTFQSYGIS,VIYSDGRRTFYGDSVK,GRAAGTFDG,3.54 nd nd,3.54
GFTLNSYGIV,VIYSDGRRVFYGDSVK,GRAYGTFDS,nd 3.38 nd,3.38
GFTLNSYGTS,VIYSDGRRTFYGDSVK,GRAAGTQDS,nd nd nd,nd
DFTLNSYGIQ,VIRSDGRRTFYGDSVK,GRAAGTFDS,nd nd nd,nd
GFTNNSYGIS,VIYSDFRRTFYGDSVK,GRAAGTLDS,nd 3.88 nd,3.88
GFTLNSYGIV,VIYSDGRRTFYGDSVK,LYAAGTFDS,nd nd nd,nd
GVTLNSYGIS,VIYSDGRRQFYGDWVK,GRAAGTFDS,nd nd nd,nd
GFTLNSYGWS,VIYSQGRRTFYGDSVK,GRAAGTFDD,nd nd nd,nd
GFTLNSYGIS,VIYSCGRKTFYGDSVK,GRAPGTFDS,nd nd nd,nd
GFTLNSYGIS,VIYADGLRTFYGDSVK,GQAAGTFDS,1.54 1.55 1.40,1.50
GYTLNSYGWS,VIYSDGRRTFYGDSGK,GRAAGTFDS,nd nd 2.92,2.92
GFTLNSYGIS,IIYSDGRRTFYGMSVK,GRANGTFDS,nd nd nd,nd

The remaining entries, values ahead:

"replicates, log10 nM","mean, log10 nM",CDR-H1,CDR-H2,CDR-H3
nd nd 4.84,4.84,GFTPNSYFIS,GIYSDGRRTFYGDSVK,GRAAGTFDS
nd nd nd,nd,GFTLNSYGIS,VIYSDGWRTFYGDSVK,GRAAGNFDS
nd nd nd,nd,GFTLNSYGIS,QIYSDGRRTFYGASVW,GRAAGTFDS
nd 4.24 nd,4.24,GFTLNSYGII,VIYSDGRRTFYGDSVK,GRAAGTWDS
nd nd nd,nd,GFTLNSYGIS,VIYSDGRRTDGGDSVK,GRAASTFDS
nd nd nd,nd,GFTLNSLGIS,TIYSDGPRTFYGDSVK,GRAAGTFDS
0.34 0.70 0.50,0.51,GFELNSYGIS,VIYSDGRRTFYGDSVK,ARAAGYFDS
nd 5.34 nd,5.34,GATLGSYGIS,VIYSDGPRTFYGDSVK,GRAAGTFDS
nd nd nd,nd,GFTLNTYGIS,VIYPDGRRTLYGDSVK,GRAAGTFDS
4.78 nd 4.80,4.79,GFTLNPYGIS,VIYEDGRRTFYGDSVK,GRAAGTFDC
1.55 1.29 1.31,1.38,GFTLNSYGFS,VIYSDGRRTFYGDSVL,GSAAGTFDS
nd 4.50 4.58,4.54,GFTVNSYYIS,VICSDGRRTFYGDSVK,GRAAGTFDS
nd nd nd,nd,GFTRNSYGIS,VIYSDGRRTFYGNSVK,FRAAGTFDS
nd nd nd,nd,GFPQNSYGIS,VIYSDGRRTFYGDSVK,GRAEGTFDS
nd 3.50 nd,3.50,GFTLNSYPIS,VIYSDGRRTFYYDSVK,GRDAGTFDS
1.26 1.58 1.64,1.49,GFTLNSYGIS,VIYSDGMRTQYGDSVK,GRAAGTFDS
2.99 2.71 2.65,2.79,GITLNSYGIS,VIYSDGRRVFYGDSVK,GRAAGTFFS
4.20 4.18 5.01,4.46,GFTLVSYKIS,VIYSDGRRTFYGDSVK,GRAWGTFDS
nd nd nd,nd,GFTLNSYGIS,VIYSVGRRTDYGDSVK,GRAAGTFDS

Again, the first 3 entries without any signal:

CDR-H1	CDR-H2	CDR-H3	replicates, log10 nM	mean, log10 nM
GFTLNQYGIF	VIYSDGRRTFYKDSVK	GRAAGTFDS	nd nd nd	nd
GFTLNSYGHS	VIYSDGRRTFYGDSVK	GRAAGTFHQ	nd nd nd	nd
GFTLNSYGTS	VIYSDGRRTFYGDSVK	GRAAGTQDS	nd nd nd	nd

For reference, the parent read 0.65 as the reference entry and 4.11 (one replicate of three) as a member of this library.